Usually IC50 stands for the point on the concentration scale where inhibition reaches its midpoint. High values mean a need for much substance, low ones inhibition by little substance.

Sequences of proteins named here, by UniProt entry; tags and fusion partners are left off. A change or cut given only in a name is not applied to a line headed by its entry.
UniProt P48736: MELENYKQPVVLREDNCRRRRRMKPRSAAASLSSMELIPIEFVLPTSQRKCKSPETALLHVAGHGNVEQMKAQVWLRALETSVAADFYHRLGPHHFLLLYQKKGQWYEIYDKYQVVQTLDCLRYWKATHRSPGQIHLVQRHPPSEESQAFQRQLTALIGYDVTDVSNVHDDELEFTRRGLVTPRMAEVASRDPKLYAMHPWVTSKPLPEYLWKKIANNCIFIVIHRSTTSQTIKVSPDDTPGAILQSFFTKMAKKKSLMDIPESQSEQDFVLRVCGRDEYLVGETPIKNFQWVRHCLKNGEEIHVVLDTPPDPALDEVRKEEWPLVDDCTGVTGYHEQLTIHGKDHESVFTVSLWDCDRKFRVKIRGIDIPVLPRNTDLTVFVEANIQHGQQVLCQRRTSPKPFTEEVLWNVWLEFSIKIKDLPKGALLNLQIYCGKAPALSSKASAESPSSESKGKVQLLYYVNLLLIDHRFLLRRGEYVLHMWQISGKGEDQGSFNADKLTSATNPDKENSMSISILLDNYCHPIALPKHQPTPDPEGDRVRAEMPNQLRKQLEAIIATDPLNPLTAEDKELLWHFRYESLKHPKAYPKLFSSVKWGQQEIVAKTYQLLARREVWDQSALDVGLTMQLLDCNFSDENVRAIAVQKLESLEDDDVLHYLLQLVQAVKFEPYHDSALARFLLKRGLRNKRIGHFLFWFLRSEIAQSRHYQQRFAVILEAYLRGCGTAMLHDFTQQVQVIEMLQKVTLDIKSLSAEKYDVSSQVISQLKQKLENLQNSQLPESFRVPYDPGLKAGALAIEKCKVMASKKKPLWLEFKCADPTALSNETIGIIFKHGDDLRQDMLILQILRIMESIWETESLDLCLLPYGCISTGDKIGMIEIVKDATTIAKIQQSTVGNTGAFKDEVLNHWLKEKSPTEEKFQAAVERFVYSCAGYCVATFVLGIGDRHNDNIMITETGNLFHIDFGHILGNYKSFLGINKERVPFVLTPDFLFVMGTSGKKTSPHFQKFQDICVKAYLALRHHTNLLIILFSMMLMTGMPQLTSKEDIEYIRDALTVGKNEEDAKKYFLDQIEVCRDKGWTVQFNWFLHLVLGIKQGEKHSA
UniProt O00329: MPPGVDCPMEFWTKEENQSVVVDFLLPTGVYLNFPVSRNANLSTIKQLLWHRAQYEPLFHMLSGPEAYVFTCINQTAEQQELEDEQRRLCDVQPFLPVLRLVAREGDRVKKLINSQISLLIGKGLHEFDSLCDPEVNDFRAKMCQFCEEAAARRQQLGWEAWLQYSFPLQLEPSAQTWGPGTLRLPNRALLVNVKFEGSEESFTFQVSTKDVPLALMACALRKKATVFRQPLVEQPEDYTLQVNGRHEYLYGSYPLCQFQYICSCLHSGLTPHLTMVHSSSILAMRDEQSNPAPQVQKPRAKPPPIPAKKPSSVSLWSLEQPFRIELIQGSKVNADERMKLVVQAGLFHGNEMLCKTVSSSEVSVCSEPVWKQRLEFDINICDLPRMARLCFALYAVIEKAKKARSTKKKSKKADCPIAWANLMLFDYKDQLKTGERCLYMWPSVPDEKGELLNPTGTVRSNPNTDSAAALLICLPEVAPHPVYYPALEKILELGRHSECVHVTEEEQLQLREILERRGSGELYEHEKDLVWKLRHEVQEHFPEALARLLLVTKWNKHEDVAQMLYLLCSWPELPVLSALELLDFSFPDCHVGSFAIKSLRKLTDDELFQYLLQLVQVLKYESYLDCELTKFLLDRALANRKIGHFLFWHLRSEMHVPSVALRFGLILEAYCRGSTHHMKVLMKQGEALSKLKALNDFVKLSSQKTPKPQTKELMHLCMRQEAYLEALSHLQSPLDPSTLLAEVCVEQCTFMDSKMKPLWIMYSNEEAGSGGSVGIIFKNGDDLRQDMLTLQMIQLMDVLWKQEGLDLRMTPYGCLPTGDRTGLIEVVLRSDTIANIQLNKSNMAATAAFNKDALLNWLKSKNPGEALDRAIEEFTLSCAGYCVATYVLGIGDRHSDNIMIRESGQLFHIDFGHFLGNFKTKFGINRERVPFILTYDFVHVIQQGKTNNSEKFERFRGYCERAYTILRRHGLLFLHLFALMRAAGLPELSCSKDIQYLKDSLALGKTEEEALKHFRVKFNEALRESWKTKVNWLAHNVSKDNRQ
UniProt P42338: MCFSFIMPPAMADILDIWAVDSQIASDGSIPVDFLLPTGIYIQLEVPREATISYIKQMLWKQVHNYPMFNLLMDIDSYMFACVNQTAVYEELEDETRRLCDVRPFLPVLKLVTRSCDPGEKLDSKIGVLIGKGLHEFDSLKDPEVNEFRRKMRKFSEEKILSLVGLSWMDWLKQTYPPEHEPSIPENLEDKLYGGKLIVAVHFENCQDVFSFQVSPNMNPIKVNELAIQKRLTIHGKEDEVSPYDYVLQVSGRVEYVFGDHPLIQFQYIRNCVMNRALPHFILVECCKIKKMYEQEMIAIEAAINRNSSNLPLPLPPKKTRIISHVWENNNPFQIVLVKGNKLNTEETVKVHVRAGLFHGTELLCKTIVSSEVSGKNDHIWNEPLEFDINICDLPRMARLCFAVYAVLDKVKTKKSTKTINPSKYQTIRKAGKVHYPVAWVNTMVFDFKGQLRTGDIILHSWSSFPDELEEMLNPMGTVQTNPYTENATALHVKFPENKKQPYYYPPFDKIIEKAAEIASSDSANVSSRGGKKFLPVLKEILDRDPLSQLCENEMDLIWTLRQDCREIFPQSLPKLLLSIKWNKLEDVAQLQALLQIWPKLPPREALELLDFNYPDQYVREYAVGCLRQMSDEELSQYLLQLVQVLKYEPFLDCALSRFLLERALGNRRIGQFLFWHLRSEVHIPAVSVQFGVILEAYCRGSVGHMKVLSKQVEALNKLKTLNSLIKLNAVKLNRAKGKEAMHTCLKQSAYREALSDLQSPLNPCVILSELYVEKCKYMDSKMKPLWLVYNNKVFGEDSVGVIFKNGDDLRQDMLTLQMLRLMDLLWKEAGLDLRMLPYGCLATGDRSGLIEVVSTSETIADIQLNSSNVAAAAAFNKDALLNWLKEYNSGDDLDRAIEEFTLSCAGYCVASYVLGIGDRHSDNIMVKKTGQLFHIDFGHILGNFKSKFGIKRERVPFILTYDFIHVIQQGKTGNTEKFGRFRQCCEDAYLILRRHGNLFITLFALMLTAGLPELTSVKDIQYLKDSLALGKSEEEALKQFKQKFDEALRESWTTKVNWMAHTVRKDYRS

Results on four molecules are retold here after the Kinase Knowledgebase extract (Sharma et al. 2016).

One assay addresses PIK3CG (human) (UniProt P48736). Kind of assay: Enzyme Assay.
Assay [1] concerns the target PIK3CD (Human) (UniProt O00329). As to the kind of experiment: Cell-Based Assay. To be noted: raji.
Assay [2] shares this target. Kind of assay: Enzyme Assay.
In another assay the target is PIK3CB (Human) (UniProt P42338). Kind of assay: Enzyme Assay.

Consider `C[C@H](NC(=O)c1c(N)nn2cccnc12)c1cc2cccc(C#Cc3cn(C)cn3)c2c(=O)n1-c1ccccc1`, for which the IC50 at PIK3CG (human) was in the range of 1 to 100 nM.
`C[C@H](NC(=O)c1c(N)nn2cccnc12)c1cc2cccc(C#Cc3cnn(C)c3)c2c(=O)n1-c1ccccc1`: the IC50 on PIK3CD (Human) [1] lay in the range of 100 to 500 nM; on PIK3CD (Human) [2] it was 5000 to 10000 nM.
Take `C[C@H](NC(=O)c1c(N)nn2cccnc12)c1cc2cccc(C#Cc3cnn(C)c3C(F)(F)F)c2c(=O)n1-c1ccccc1`: the IC50 at PIK3CB (Human) lay within 5000 to 10000 nM.
Take `C[C@H](NC(=O)c1c(N)nn2cccnc12)c1cc2cccc(C#Cc3ccc(=O)[nH]c3)c2c(=O)n1-c1ccccc1`: the IC50 at PIK3CG (human) lay within 1 to 100 nM.
